Experimental data from patent US20070270428A1, “Use of Cyclooxygenase-2 Inhibitors for the Treatment of Depressive Disorders” (priority 2003, published 2007).

Chains of the proteins cited; added tags and fusions are not shown. Residues count along the entry.
UniProt P23219, 24-599: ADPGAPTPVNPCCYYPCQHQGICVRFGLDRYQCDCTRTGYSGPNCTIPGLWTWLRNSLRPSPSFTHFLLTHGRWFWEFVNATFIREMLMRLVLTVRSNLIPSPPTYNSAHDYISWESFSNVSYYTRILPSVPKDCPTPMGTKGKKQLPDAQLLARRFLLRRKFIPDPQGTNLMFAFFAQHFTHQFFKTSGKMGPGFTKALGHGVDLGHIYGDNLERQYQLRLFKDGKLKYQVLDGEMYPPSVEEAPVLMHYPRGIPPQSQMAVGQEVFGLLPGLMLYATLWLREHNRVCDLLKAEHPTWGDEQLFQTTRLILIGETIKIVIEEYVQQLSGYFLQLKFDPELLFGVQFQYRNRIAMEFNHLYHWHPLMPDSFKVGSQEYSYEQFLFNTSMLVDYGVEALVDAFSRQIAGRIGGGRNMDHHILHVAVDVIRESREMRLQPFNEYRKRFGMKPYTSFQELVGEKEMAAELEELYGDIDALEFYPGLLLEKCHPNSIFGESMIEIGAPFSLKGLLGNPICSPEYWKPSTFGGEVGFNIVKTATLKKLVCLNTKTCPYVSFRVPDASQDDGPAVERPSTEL

Molecular target: COX-1 (Homo sapiens, UniProt P23219)
Test: Microsomal assay, COX-1
Format: biochemical

SMILES: CCCCOc1nc(-c2ccc(S(C)(=O)=O)cc2)cc(C(F)(F)F)n1 [Example 1.10, 2-Butoxy-4-[4-(methylsulfonyl)phenyl]-6-(trifluoromethyl)pyrimidine]
- IC50: > 30 µM
